Tested on: beta-glucuronidase (GUS) reporter in genetically modified tobacco plants
Conditions: 2 μM, hand-held UV lamp

## 1-(4,5-dimethoxy-2-nitrophenyl)-ethyl-caged doxycycline [DMNPE-caged doxycycline]
  GUS expression, irradiated half of leaf piece: significant GUS expression

Source: US20060105458A1, “Caged tetracycline (derivatives), their generation, and their use for photoactivated gene expression” (priority 2002, published 2006)
